The test has as its target Epidermal growth factor receptor (Homo sapiens, UniProt P00533). Kind of test: Antagonism towards Epidermal growth factor receptor.

The chains behind the UniProt entries cited, without tags or fusion partners.
UniProt P00533, whole entry: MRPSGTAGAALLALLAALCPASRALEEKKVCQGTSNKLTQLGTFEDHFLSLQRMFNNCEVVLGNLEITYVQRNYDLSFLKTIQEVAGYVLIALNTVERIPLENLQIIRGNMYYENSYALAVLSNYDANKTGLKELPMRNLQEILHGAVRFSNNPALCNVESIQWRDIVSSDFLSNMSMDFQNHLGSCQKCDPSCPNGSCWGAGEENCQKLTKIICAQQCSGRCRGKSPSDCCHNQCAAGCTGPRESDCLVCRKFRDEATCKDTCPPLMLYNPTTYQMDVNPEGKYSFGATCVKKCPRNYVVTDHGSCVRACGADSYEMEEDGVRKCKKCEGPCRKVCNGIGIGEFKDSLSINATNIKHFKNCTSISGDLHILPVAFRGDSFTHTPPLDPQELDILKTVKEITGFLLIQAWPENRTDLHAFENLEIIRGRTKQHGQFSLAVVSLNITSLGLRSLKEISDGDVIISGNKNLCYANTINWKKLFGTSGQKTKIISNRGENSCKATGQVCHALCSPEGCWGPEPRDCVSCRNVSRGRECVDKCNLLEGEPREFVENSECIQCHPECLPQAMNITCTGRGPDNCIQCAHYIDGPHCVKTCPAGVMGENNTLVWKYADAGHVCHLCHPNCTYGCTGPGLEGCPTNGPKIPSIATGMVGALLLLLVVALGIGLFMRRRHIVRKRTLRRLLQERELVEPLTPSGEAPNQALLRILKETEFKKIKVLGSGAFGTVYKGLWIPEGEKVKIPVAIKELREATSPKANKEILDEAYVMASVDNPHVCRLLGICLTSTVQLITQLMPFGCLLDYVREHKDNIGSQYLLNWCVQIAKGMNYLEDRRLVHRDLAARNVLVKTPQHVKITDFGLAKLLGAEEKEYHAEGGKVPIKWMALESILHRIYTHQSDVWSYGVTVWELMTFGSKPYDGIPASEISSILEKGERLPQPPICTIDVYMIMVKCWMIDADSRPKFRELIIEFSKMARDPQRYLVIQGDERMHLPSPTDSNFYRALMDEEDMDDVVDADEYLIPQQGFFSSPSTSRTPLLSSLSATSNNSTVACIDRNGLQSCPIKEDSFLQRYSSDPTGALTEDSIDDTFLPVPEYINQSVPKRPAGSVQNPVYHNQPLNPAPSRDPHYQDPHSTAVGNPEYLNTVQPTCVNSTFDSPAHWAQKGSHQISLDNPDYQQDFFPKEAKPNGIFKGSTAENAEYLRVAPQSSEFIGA

The IC50 is the concentration at which inhibition is half-maximal. Low readings indicate higher potency, high ones lower potency.

Consider `COc1cc2ncnc(Nc3cc(OC)c(OC)c(OC)c3)c2cc1OC`, for which the IC50 came out at 500 nM.

Source of the values: ChEMBL document CHEMBL1129840, “The synthesis and SAR of new 4-(N-alkyl-N-phenyl)amino-6,7-dimethoxyquinazolines and 4-(N-alkyl-N-phenyl)aminopyrazolo[3,4-d]pyrimidines, inhibitors of CSF-1R tyrosine kinase activity” (Bioorg Med Chem Lett, 1997).
